From US20050260730A1, “CDK2/cyclin A crystals and uses thereof” (priority 2003, published 2005)

Legend:
CDK2/cyclin A = CDK2/cyclin A (Homo sapiens, UniProt P20248); assay: CDK2/cyclin A kinase activity assay; assay type: biochemical
cyclin A = cyclin A (Homo sapiens, UniProt P20248); assay: Competitive cyclin A binding assay

IC50 (CDK2/cyclin A) [µM]	IC50 (cyclin A) [µM]	potency decrease (cyclin A; relative to the unmodified parent peptide (Table 2))	SMILES
12	79		CC(C)C[C@H](NC(=O)[C@H](CCCNC(N)=O)NC(=O)[C@@H](N)CCCNC(N)=O)C(=O)N[C@@H](C)C(=O)N[C@@H](Cc1ccc(F)cc1)C(N)=O [SEQ ID NO: 27, H-Cit-Cit-Leu-Ala-(p-F-Phe)-NH2]
		more than 10 fold	CC(C)C[C@H](NC(=O)[C@H](CCCNC(=N)N)NC(=O)[C@@H](N)CCCNC(=N)N)C(=O)N[C@@H](Cc1ccccc1)C(N)=O [SEQ ID NO: 20, H-Arg-Arg-Leu-Phe-NH2]
